{"sequences": {"note": "Protein sequences, listed by entry. Tags and fused reporters are not part of them.", "UniProt O75116, whole entry, species assumed": "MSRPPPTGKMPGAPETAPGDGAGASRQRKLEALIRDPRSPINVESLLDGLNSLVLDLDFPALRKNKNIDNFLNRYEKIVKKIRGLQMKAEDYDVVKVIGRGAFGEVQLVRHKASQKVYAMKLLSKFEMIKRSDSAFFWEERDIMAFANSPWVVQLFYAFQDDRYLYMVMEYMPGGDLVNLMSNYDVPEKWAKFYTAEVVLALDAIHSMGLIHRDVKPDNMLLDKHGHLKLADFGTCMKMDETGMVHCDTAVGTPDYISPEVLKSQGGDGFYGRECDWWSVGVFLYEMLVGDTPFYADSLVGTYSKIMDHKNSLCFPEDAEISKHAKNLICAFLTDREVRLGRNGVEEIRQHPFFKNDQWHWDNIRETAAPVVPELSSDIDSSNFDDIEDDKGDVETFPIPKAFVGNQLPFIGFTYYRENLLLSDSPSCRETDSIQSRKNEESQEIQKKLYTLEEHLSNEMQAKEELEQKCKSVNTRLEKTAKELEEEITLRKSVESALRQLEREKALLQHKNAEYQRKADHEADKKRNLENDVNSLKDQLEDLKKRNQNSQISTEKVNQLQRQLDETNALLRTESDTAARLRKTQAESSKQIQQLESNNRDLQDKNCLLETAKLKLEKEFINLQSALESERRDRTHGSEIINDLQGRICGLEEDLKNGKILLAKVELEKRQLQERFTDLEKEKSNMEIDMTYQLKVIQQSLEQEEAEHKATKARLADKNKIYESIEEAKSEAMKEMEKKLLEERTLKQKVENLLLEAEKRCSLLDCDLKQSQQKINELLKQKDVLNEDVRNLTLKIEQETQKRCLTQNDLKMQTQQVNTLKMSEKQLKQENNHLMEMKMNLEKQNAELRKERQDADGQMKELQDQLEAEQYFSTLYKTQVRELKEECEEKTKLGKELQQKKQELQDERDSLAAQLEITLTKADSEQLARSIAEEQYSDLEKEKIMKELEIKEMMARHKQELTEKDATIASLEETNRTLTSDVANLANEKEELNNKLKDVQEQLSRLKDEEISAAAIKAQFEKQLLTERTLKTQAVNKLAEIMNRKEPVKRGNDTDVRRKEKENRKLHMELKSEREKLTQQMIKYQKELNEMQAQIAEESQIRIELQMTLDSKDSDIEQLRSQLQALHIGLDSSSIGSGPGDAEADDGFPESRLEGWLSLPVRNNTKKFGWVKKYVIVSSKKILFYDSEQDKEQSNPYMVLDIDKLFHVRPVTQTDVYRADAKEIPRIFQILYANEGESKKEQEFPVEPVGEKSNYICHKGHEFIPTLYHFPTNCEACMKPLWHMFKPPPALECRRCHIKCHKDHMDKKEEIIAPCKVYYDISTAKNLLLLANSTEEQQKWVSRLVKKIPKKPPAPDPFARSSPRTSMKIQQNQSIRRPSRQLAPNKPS"}, "source": "patent EP4631504A1", "about": "“COMPOSITION FOR PREVENTION OR TREATMENT OF FABRY'S DISEASE” (Korea Advanced Institute of Science and Technology, priority 2022, dated 2024)", "origin": "cited, not measured here", "target": "Rock2 (Homo sapiens, UniProt O75116)", "conditions": "cited from earlier work", "data": [{"substance": "Netarsudil mesylate", "values": [{"measurement": "IC50", "result": "1 to 2", "unit": "nM"}]}]}
